The text below walks through data of PubChem BioAssay AID759 (NMMLSC, 2007).

Amino acid sequences for entries named in this document (tags omitted).
UniProt P01112, whole entry: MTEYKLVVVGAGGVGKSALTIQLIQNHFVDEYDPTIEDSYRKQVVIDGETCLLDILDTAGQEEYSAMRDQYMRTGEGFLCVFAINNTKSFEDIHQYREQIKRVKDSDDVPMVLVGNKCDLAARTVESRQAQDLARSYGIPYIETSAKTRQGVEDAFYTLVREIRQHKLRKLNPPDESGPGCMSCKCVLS

SMILES strings stand for the structures. The list shows a part of the results, in another mix than the full data. Calls of active or inactive are those of the source.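 Rule for the calls: active = GTP binding activity at least 20% away from the 100% baseline, either lowered as inhibitor or raised as activator; inconclusive = flagged as likely green fluorescent, judged across all proteins in the well; inactive = the rest.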

The experiment has as its target GTPase HRas (Homo sapiens) (UniProt P01112). Description: modulators of GTP binding to HRas wildtype, primary screen, biochemical, bead-based flow cytometry, multiplex (AID 759).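 Note: 0% = unlabeled GTP competition control and 100% = no-compound control.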 The note with it: GST-Ras wt beads, Bodipy-FL-GTP binding, at 10 µM, actives lie on both sides. Background: A flow cytometer gives signals particle by particle.
For the molecule `COc1ccc(C(=O)NCC2(N3CCOCC3)CCCCC2)cc1OC`, the GTP binding activity was inactive: 98%.
The value for `O=C(OC1CN2CCC1CC2)C1c2ccccc2C=Cc2ccccc21` (centres undefined) was inactive: 102%; that for `N/C(=N\O)c1c(N)no[n+]1[O-]` was inactive: 102%.
For `N#Cc1ccc(C(=O)NCC2(N3CCCCC3)CCCCC2)cc1` the value was inactive: 100%; for `c1ccc(CN2CCC(Nc3ccccc3)CC2)cc1`, inactive: 99%; for `Fc1ccccc1NC1CCN(Cc2ccccc2)CC1`, inactive: 104%.
The value for `CN(C)c1ccc(C(=O)NCC2(N3CCCCC3)CCCCC2)cc1` was inactive: 101%.
`CCN1CCC(Nc2cccc(F)c2)CC1`: the GTP binding activity is inactive: 100%.
The value for `CC(C)(C)OC(=O)N1CCC(Nc2ccccc2)CC1` was inactive: 100%; that for `CCOc1ncccc1C(=O)NCC1(N2CCOCC2)CCCCC1` was inactive: 100%; that for `COc1cc(OC)cc(C(=O)NCC2(N3CCOCC3)CCCCC2)c1` was inactive: 92%.
The value for `COc1ccc(C(=O)NCC2(N3CCCCC3)CCCCC2)c(OC)c1OC` was inactive: 98%; that for `CCOC(=O)N1CCC(Nc2ccc(OC)cc2)CC1` was inactive: 100%.
For `O=C(OC1CN2CCC1CC2)C1c2ccccc2Oc2ccccc21` (centres undefined), the GTP binding activity was inactive: 101%.
For `O=C(NCC1(N2CCOCC2)CCCCC1)c1cc2ccccc2o1` the value was inactive: 101%; for `COc1ccc(NC2CCN(CCc3ccccc3)CC2)c(OC)c1`, inactive: 99%.
For `O=C(NCC1(N2CCCCC2)CCCCC1)c1cccc([N+](=O)[O-])c1` the value was inactive: 97%; for `N#CC1(Nc2ccccc2)CCN(CCc2ccccc2)CC1`, inactive: 108%; for `CN1CCN(CCOC(=O)C(O)(c2ccccc2)c2ccccc2)CC1`, inactive: 102%.
The value for `COc1ccc(NC2CCN(C(=O)OC(C)(C)C)CC2)cc1` was inactive: 100%; that for `O=C(NCC1(N2CCOCC2)CCCCC1)c1cc(=O)[nH]c2ccccc12` was inactive: 99%; that for `COc1ccc(CN(CCCl)CCCl)cc1Cl` was inactive: 95%.
On to `CN(C)c1cccc(C(=O)NCC2(N3CCCCC3)CCCCC2)c1`, for which the GTP binding activity was inactive: 99%.
For the molecule `CC(C)c1ccc(NC2CCN(C(=O)OC(C)(C)C)CC2)cc1`, the GTP binding activity is inactive: 95%.
